This is an account of results in publication PMC10132805 (2023).

In assay [1] the target is T1, NEDD4 binding peptide from RNF11 (human, UniProt Q9Y3C5). Description: FP; NEDD4 WW2.
In assay [2] the target is T1, NEDD4 binding peptide from RNF11. Description: FP; NEDD4 WW4.

Regarding GPLPPGWEERTHTDGRIFYINHNIKRTQWEDPRL (domain or fragment) [E3 ubiquitin-protein ligase NEDD4 WW domain], the results for the Kd in assay [1] and in assay [2] were 13 µM and 44 µM, respectively.
